Tested on: hERG (Potassium voltage-gated channel subfamily H member 2, Homo sapiens)
Assay: Displacement of [35S]MK-0499 from human hERG potassium channel at 1 uM

Structure (SMILES) | inhibition [%]
CN1C(=O)[C@H](NC(=O)[C@@H](Cc2ccccc2F)NC(=O)OC(C)(C)C)CN(CC2CC2)c2ccccc21 | 1

Tested on: hERG (Potassium voltage-gated channel subfamily H member 2, Homo sapiens)
Assay: Displacement of [35S]MK-0499 from human hERG potassium channel at 10 uM

Structure (SMILES) | inhibition [%]
CC(C)(C)OC(=O)N[C@H](Cc1ccc(F)cc1)C(=O)N[C@@H]1CN(CC2CC2)c2ccccc2N(CC(F)(F)F)C1=O | 18
CC(C)N1C(=O)[C@H](NC(=O)[C@@H](Cc2ccc(F)cc2)NC(=O)OC(C)(C)C)CN(CC2CC2)c2ccccc21 | 29
CC(C)N1C(=O)[C@H](NC(=O)[C@@H](Cc2ccccc2C(F)(F)F)NC(=O)OC(C)(C)C)CN(CC2CC2)c2ccccc21 | 21
CC(C)(C)OC(=O)N[C@H](Cc1ccccc1OC(F)(F)F)C(=O)N[C@@H]1CN(CC2CC2)c2ccccc2N(CC(F)(F)F)C1=O | 13
CN1C(=O)[C@H](NC(=O)[C@@H](Cc2ccccc2F)NC(=O)OC(C)(C)C)CN(CC2CC2)c2ccccc21 | 45
CC(C)(C)OC(=O)N[C@H](Cc1ccccc1)C(=O)N[C@@H]1CN(CC2CC2)c2ccccc2N(CC(F)(F)F)C1=O | 24

Reference: ChEMBL document CHEMBL1141526, “3-Amino-1,5-benzodiazepinones: potent, state-dependent sodium channel blockers with anti-epileptic activity” (Bioorg Med Chem Lett, 2008)
